Reference: patent US20230012570A1, “BICYCLIC COMPOUND USED AS SELECTIVE ANDROGEN RECEPTOR MODULATOR” (MEDSHINE DISCOVERY INC., priority 2019, published 2023)

By UniProt entry, the sequences of proteins in these tests, tags left out.
UniProt P05177, whole entry: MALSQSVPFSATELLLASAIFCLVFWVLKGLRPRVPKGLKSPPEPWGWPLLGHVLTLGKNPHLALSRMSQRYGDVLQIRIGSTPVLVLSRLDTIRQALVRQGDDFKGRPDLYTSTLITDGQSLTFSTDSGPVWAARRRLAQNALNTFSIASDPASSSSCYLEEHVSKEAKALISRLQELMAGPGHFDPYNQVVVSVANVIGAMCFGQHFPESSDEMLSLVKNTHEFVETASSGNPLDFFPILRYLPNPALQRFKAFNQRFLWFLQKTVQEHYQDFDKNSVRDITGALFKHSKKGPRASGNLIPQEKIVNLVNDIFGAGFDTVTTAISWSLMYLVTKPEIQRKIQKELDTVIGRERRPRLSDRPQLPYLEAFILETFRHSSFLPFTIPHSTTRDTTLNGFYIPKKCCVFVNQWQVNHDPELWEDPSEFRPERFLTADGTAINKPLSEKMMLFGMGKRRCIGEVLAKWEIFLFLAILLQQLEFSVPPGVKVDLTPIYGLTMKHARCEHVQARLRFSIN
UniProt P11712, whole entry: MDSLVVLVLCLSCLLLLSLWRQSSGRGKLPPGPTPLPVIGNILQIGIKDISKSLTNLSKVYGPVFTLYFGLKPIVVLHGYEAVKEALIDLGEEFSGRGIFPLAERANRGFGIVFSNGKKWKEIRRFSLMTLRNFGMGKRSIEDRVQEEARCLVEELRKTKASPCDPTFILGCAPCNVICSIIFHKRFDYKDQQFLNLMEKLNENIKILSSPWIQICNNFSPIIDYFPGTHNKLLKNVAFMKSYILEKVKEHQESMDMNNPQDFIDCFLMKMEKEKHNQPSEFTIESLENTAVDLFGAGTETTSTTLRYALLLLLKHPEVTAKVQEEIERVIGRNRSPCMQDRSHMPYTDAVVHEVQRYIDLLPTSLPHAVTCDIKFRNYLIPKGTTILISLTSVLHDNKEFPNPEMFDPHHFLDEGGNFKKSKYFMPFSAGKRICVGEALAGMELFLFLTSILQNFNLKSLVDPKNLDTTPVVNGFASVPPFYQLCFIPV
UniProt P33261, whole entry: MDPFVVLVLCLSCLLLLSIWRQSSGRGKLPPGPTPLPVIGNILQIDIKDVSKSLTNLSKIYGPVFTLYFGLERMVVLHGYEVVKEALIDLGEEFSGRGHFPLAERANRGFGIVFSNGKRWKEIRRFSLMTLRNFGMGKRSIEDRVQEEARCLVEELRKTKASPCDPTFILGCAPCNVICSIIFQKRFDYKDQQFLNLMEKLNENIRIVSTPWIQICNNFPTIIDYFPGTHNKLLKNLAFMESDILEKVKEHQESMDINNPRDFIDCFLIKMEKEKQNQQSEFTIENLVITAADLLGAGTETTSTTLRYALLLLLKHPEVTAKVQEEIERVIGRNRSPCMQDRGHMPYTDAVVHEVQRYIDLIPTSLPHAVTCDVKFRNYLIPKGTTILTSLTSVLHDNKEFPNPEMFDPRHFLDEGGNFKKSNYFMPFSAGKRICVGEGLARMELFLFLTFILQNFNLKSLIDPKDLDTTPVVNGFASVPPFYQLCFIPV
UniProt P10635, whole entry: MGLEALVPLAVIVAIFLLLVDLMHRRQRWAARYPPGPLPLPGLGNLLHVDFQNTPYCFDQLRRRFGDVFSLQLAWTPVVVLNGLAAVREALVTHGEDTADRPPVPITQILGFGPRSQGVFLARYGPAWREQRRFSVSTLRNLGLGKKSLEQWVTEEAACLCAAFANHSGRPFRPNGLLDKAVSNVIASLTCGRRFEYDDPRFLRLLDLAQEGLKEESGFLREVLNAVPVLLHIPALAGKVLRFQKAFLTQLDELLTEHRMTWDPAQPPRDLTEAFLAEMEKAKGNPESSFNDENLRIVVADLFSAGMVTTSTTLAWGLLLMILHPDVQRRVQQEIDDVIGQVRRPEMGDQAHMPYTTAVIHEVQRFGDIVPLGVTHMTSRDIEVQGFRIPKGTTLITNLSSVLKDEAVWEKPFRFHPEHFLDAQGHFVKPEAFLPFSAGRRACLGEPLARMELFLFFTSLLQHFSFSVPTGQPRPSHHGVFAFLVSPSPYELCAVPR
UniProt P08684, whole entry: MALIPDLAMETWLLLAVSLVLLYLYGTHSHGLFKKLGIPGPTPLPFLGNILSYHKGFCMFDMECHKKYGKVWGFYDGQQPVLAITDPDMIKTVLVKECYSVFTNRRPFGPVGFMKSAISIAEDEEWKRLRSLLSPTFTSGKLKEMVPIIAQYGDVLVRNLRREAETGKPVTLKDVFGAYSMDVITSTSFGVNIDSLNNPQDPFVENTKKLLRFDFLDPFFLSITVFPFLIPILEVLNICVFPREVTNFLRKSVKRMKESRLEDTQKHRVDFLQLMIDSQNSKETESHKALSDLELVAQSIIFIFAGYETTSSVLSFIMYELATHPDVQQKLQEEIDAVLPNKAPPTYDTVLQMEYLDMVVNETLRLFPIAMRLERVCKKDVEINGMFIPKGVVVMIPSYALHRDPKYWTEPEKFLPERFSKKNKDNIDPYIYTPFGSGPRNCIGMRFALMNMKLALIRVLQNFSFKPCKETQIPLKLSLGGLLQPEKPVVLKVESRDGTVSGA
UniProt P10275, whole entry: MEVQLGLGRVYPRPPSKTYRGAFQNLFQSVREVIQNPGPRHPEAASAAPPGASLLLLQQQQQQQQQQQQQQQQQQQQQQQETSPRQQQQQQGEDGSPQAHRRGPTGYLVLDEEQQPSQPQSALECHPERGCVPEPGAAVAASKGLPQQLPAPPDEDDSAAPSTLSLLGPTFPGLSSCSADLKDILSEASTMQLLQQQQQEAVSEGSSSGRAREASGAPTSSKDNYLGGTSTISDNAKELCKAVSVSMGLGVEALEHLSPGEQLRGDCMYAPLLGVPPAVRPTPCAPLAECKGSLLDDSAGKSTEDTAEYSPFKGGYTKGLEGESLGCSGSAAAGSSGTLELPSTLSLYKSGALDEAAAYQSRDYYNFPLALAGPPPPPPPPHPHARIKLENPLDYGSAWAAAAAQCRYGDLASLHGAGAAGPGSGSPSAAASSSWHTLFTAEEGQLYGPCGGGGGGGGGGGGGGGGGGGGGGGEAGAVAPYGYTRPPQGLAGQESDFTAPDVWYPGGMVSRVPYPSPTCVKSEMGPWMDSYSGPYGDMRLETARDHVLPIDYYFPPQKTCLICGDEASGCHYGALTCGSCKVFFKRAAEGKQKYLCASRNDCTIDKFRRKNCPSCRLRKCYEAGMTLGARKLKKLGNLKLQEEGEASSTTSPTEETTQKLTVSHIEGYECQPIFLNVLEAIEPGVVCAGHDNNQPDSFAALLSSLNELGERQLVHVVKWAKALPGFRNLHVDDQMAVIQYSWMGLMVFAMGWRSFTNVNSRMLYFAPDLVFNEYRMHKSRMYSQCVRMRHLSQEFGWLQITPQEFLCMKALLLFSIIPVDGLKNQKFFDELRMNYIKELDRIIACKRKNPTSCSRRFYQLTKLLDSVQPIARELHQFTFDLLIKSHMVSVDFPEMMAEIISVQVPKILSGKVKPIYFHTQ

Tests used:
CYP1A2 = CYP1A2 (Homo sapiens, UniProt P05177); assay: Human liver microsomal CYP inhibition experiment, CYP1A2; details: read-out: IC50 CYP1A2; mixed human liver microsomes, 10 min incubation with NADPH
Procedure: (§1) Experiment Embodiment 4: Human Liver Microsomal CYP Inhibition Experiment
(§2) The inhibitory effects of the test compound 3A and VK5211 on the activities of human liver microsomal cytochrome P450 isozymes (CYP1A2, CYP2C9, CYP2C19, CYP2D6 and CYP3A4) were determined.
(§3) Mixed human liver microsomes (HLM) were purchased from Corning Inc. (Steuben, New York, USA) or XenoTech, LLC. (Lenexa, Kans., USA) or other suppliers, and were stored at a temperature below −60° C. before use.
(§4) First, the test compound (10.0 mM) was gradient diluted to prepare working solution (100×final concentration), and the concentrations of the working solution were: 5.00, 1.50, 0.500, 0.150, 0.0500, 0.0150, 0.00500 mM, and a working solution of each positive inhibitor of P450 isozymes (CYP1A2, CYP2C9, CYP2C19, CYP2D6, and CYP3A4) and a specific substrate mixture thereof (5 in 1) were prepared at the same time; human liver microsomes stored in a refrigerator at a temperature lower than −60° C. were put on ice to thaw, and when all the human liver microsomes were dissolved, the microsomes were diluted with potassium phosphate buffer (PB) to prepare a working solution of a certain concentration (0.253 mg/mL). […] The concentration of metabolites produced by the probe substrate in the sample was determined by liquid chromatography-tandem mass spectrometry (LC-MS/MS) method. […]

CYP2C9 = CYP2C9 (Homo sapiens, UniProt P11712); assay: Human liver microsomal CYP inhibition experiment, CYP2C9; details: read-out: IC50 CYP2C9; mixed human liver microsomes, 10 min incubation with NADPH
Procedure: as §1, §2, §3, §4

CYP2C19 = CYP2C19 (Homo sapiens, UniProt P33261); assay: Human liver microsomal CYP inhibition experiment, CYP2C19; details: read-out: IC50 CYP2C19; mixed human liver microsomes, 10 min incubation with NADPH
Procedure: as §1, §2, §3, §4

CYP2D6 = CYP2D6 (Homo sapiens, UniProt P10635); assay: Human liver microsomal CYP inhibition experiment, CYP2D6; details: read-out: IC50 CYP2D6; mixed human liver microsomes, 10 min incubation with NADPH
Procedure: as §1, §2, §3, §4

CYP3A4 = CYP3A4 (Homo sapiens, UniProt P08684); assay: Human liver microsomal CYP inhibition experiment, CYP3A4; details: read-out: IC50 CYP3A4; mixed human liver microsomes, 10 min incubation with NADPH
Procedure: as §1, §2, §3, §4

androgen receptor (AR) = androgen receptor (AR) (Homo sapiens, UniProt P10275); assay: Agonistic effect of test compounds on androgen receptor (AR), LiveBLAzer FRET reporter cell assay; details: read-out: EC50, agonist activity on androgen receptor; AR cells, 16 hours incubation, 10 concentrations
Procedure: Experimental Embodiment 1: Agonistic Effect of Test Compounds on Androgen Receptor (AR)
1. Preparation of Compounds, Placing in Plates:
1.1 Preparation of compounds: the test compounds were diluted to the working concentration, and each compound was diluted by 4 times with Echo for 10 concentration gradients, and the compounds were added to a 384-well cell plate according to the microplate layout diagram, with 200 nL per well;
1.2 AR cell assay medium: 87% Opti-MEM (reduced serum medium), 10% Dialyzed FBS (dialyzed fetal bovine serum), 1% NEAA (non-essential amino acids), 1% sodium pyruvate and 1% penicillin-streptomycin;
1.3 culture medium, trypsin and Dulbecco's phosphate buffer were preheated in a 37° C. water bath;
1.4 the original medium in the cell culture flask was removed, and the cells were washed once with 6 mL of Dulbecco's phosphate buffer; […]
2. Reading the Board and Analyzing Data: […]
2.3 the cell culture plate was taken out, and 8μL of 6×substrate buffer was added to each well, shaken for 1 minute, and centrifuged at 1000 rpm for 10 seconds; after sealing the membrane, the cells were incubated at 23° C. for 2 hours, and the plate was read with Envision, and the curve EC50 value was fitted by Prism software.

| SMILES | IC50 (CYP1A2) | IC50 (CYP2C9) | IC50 (CYP2C19) | IC50 (CYP2D6) | IC50 (CYP3A4) | EC50 (androgen receptor (AR)) |
| --- | --- | --- | --- | --- | --- | --- |
| N#Cc1ccc(N2CCC[C@@H]2[C@@H](O)C(F)(F)F)cc1Cl | 11.5 µM | 6.4 µM | 0.336 µM | 14.3 µM | > 50 µM |  |
| N#Cc1ccc(N2CC3CC3C[C@@H]2C(O)C(F)(F)F)cc1C(F)(F)F (stereo partly drawn) |  |  |  |  |  | 0.00022 µM |
